# Source: patent publication US20260209272A1 (priority 2022, published 2026)
# Assays:
# [1] = tested on: detached potato leaves; conditions: detached potato leaves treated with peptide plus water, no inoculum; 9 = clean leaves
# [2] = laboratory conditions
# [3] = plants outdoors, samples 0-16 days, in the presence of Triton, mass spectrometry
# [4] = tested on: Phytophthora infestans zoospores
sequence,measurement,setting,value
RITAQIRL [Peptide V1],"score (1-9 scale), negative control without Phytophthora infestans inoculation",[1],9.00
same,adherence to leaves (rain wash-off),[2],adhered to the leaves
same,peptide's concentration on the leaves,[3],remained relatively stable
same,activity of peptide exposed to direct sunlight for 48 hours,[4]; FIG. 8 photomicrograph of zoospores,remains active
same,activity after heat and sunlight exposure,[4]; after exposure to 40° C. for 9 days and direct sunlight,remained active
same,zoospore germination with sun-exposed dried peptide,"[4]; dried droplets outdoors 8 days (48 cumulative hours of direct sunlight), re-dissolved with zoospores",slight amount of germination
